Earlier results, collected in patent publication US20150164917A1, “FORMULATIONS FOR THE PREPARATION OF IMMEDIATE-RELEASE TABLETS FOR ORAL USE CONTAINING LOW-DOSE MIFEPRISTONE FOR THE TREATMENT OF ENDOMETRIOSIS, TABLETS THUS OBTAINED AND THEIR PREPARATION PROCESS” (VALPHARMA INTERNATIONAL S.P.A., priority 2012, published 2015).

Target: T1, progesterone receptor (Homo sapiens, UniProt P06401)
T1 sequence (P06401 1-933): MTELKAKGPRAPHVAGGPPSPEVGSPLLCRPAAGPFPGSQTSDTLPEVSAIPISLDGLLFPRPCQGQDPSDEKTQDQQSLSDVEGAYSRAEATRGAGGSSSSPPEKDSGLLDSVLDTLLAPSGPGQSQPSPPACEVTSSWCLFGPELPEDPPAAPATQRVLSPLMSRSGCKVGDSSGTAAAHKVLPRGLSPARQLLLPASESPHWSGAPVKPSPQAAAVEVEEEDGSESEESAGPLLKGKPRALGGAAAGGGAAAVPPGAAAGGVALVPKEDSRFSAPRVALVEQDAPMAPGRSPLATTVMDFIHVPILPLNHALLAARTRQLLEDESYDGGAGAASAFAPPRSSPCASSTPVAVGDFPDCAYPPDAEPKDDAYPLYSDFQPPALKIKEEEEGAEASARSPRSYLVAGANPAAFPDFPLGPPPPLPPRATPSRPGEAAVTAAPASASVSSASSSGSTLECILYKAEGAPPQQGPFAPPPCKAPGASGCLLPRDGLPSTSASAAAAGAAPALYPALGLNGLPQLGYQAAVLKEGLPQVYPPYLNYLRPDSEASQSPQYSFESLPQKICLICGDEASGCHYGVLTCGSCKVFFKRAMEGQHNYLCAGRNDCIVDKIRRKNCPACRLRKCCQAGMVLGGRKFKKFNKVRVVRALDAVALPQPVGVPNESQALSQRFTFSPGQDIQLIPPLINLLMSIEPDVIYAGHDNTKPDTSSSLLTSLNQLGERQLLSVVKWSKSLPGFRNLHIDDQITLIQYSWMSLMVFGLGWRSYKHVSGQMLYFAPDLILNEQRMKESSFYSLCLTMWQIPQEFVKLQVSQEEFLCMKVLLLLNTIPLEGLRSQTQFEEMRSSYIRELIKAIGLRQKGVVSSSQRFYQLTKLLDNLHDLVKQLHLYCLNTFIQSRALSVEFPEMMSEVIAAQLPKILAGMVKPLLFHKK
Settings: endometrial level; relative to progesterone itself

## CC#C[C@]1(O)CC[C@H]2[C@@H]3CCC4=CC(=O)CCC4=C3[C@@H](c3ccc(N(C)C)cc3)C[C@@]21C [Mifepristone]
  ability to bind with the progesterone receptor relative to progesterone: 5 times
